Test results published in patent US20170247393A1, “Aminoisoxazoline Compounds as Agonists of Alpha7-Nicotinic Acetylcholine Receptors” (Forum Pharmaceuticals, Inc., priority 2015, published 2017).
Where a name gives a salt, the structure may show the parent alone.

Chains of the proteins cited; added tags and fusions are not shown. Residues count along the entry.
UniProt P36544, 23-502 limits assumed: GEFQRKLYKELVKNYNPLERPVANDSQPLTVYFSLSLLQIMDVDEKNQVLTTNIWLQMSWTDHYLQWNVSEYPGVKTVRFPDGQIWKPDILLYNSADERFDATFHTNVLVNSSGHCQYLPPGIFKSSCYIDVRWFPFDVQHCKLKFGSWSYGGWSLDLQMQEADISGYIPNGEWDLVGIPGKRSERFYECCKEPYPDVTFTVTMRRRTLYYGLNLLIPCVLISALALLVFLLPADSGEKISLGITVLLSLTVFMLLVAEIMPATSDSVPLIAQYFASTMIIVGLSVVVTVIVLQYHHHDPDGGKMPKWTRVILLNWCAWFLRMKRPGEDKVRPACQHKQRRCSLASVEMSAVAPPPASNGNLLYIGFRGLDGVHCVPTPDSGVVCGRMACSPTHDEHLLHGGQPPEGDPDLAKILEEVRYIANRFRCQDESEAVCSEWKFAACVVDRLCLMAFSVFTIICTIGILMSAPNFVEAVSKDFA

What follows are molecules tested against human α7 nAChR (Homo sapiens, UniProt P36544) (assay: Human α7 nAChR binding assay ([125I]-αBungarotoxin competition binding, Cerep)). Conditions: read-out: h- α7 Ki; SH-SY5Y membranes expressing human α7 nAChR, 0.05 nM [125I]-αBgt, 120 min at 37° C.

Row | Compound | Ki [nM]
1 | COc1cc(NC2=NO[C@@]3(C2)CN2CCC3CC2)ccc1C1CC1 | 4500
2 | COc1cc(NC2=NO[C@@]3(C2)CN2CCC3CC2)ccc1Cl | 1200
3 | Cc1cc2cc(NC3=NO[C@@]4(C3)CN3CCC4CC3)ccc2o1 | 470
4 | Cc1nc2cc(NC3=NO[C@@]4(C3)CN3CCC4CC3)ccc2n1C | 12000
5 | Cc1nc2ccc(NC3=NO[C@@]4(C3)CN3CCC4CC3)cc2n1C | 1400
6 | Cc1nc2ccc(NC3=NO[C@@]4(C3)CN3CCC4CC3)cc2o1 | 770
7 | Clc1cc(Cl)c2sc(NC3=NO[C@@]4(C3)CN3CCC4CC3)nc2c1 | 1300
8 | Clc1cc(NC2=NO[C@@]3(C2)CN2CCC3CC2)cc(Cl)c1Cl | 2900
9 | Clc1cc(NC2=NO[C@@]3(C2)CN2CCC3CC2)ccc1C1CC1 | 630
10 | Clc1cc2c(Cl)coc2cc1NC1=NO[C@@]2(C1)CN1CCC2CC1 | 4200
11 | Clc1ccc(NC2=NO[C@@]3(C2)CN2CCC3CC2)cc1C1CC1 | 1000
12 | Clc1ccc2nc(NC3=NO[C@@]4(C3)CN3CCC4CC3)sc2c1Cl | 1500
13 | Clc1cccc2sc(NC3=NO[C@@]4(C3)CN3CCC4CC3)nc12 | 620
14 | Clc1cccc2sc(NC3=NO[C@]4(C3)CN3CCC4CC3)nc12 | 17000
15 | Cn1c(NC2=NO[C@@]3(C2)CN2CCC3CC2)nc2ccccc21 | > 30000
16 | Cn1cnc2cc(NC3=NO[C@@]4(C3)CN3CCC4CC3)ccc21 | 1600
17 | Cn1cnc2ccc(NC3=NO[C@@]4(C3)CN3CCC4CC3)cc21 | 1700
18 | FC(F)(F)c1cc(NC2=NO[C@@]3(C2)CN2CCC3CC2)ccc1Cl | 750
19 | FC(F)(F)c1ccc(NC2=NO[C@@]3(C2)CN2CCC3CC2)cc1Cl | 1700
20 | FC(F)(F)c1ccc2sc(NC3=NO[C@@]4(C3)CN3CCC4CC3)nc2c1 | 560
21 | FC(F)(F)c1csc2cc(NC3=NO[C@@]4(C3)CN3CCC4CC3)ccc12 | 770

Row | Compound | Ki [nM]
22 | FC1(F)Oc2ccc(NC3=NO[C@@]4(C3)CN3CCC4CC3)cc2O1 | 950
23 | Fc1cc2nc(NC3=NO[C@@]4(C3)CN3CCC4CC3)sc2c(F)c1Cl | 440
24 | Fc1cc2sc(NC3=NO[C@@]4(C3)CN3CCC4CC3)nc2c(F)c1F | 2100
25 | Fc1cc2sc(NC3=NO[C@@]4(C3)CN3CCC4CC3)nc2cc1Cl | 340
26 | N#Cc1ccc2sc(NC3=NO[C@@]4(C3)CN3CCC4CC3)nc2c1 | 660
27 | c1ccc2ncc(NC3=NO[C@@]4(C3)CN3CCC4CC3)cc2c1 | 2400
28 | c1nc(NC2=NO[C@@]3(C2)CN2CCC3CC2)cc2c1CCCC2 | > 30000
29 | c1nc(NC2=NO[C@]3(C2)CN2CCC3CC2)cc2c1CCCC2 | > 30000
30 | c1cc2c(NC3=NOC4(C3)CN3CCC4CC3)ncnn2c1 (racemic) | 18000
31 | c1ccc2c(NC3=NOC4(C3)CN3CCC4CC3)n[nH]c2c1 (racemic) | 1000
32 | c1ccc2sc(NC3=NOC4(C3)CN3CCC4CC3)cc2c1 (racemic) [rac-12, (+/−)-N-(benzo[b]thiophen-2-yl)-4H-1′-azaspiro[isoxazole-5,3′-bicyclo[2.2.2]octan]-3-amine] | 62
33 | c1cc2c(NC3=NOC4(C3)CN3CCC4CC3)ncnn2c1 (single isomer, unassigned) | > 30000
34 | c1cc2nc(NC3=NOC4(C3)CN3CCC4CC3)ccc2o1 (single isomer, unassigned) | > 30000
35 | c1ccc(NC2=NOC3(C2)CN2CCC3CC2)nc1 (single isomer, unassigned) | > 30000
36 | c1ccc2c(NC3=NOC4(C3)CN3CCC4CC3)n[nH]c2c1 (single isomer, unassigned) | > 30000
37 | c1ccc2nc(NC3=NOC4(C3)CN3CCC4CC3)ccc2c1 (single isomer, unassigned) | > 30000
38 | Clc1cccc2nc(NC3=NO[C@@]4(C3)CN3CCC4CC3)sc12 [(R)-11, (R)—N-(7-chlorobenzo[d]thiazol-2-yl)-4H-1′-azaspiro[isoxazole-5,3′-bicyclo[2.2.2]octan]-3-amine] | 210
39 | Clc1ccc2cnc(NC3=NO[C@@]4(C3)CN3CCC4CC3)cc2c1 [(R)-18, (R)—N-(6-chloroisoquinolin-3-yl)-4H-1′-azaspiroksoxazole-5,3^1-bicyclo[2.2.2]octan1-3-amine hydrochloride] | 175
40 | Clc1ccc2cc(NC3=NO[C@@]4(C3)CN3CCC4CC3)ncc2c1 [(R)-19, (R)—N-(7-chloroisoquinolin-3-yl)-4H-1′-azaspiro[isoxazole-5,3′-bicyclo[2.2.2]octan]-3-amine hydrochloride] | 143
41 | Clc1ccc(NC2=NO[C@@]3(C2)CN2CCC3CC2)cc1 [(R)-20, (R)—N-(4-chlorophenyl)-4H-1′-azaspiro[isoxazole-5,3′-bicyclo[2.2.2]octan]-3-amine hydrochloride] | 195
42 | c1ccc2nc(NC3=NO[C@@]4(C3)CN3CCC4CC3)ncc2c1 [(R)-22, (R)—N-(quinazolin-2-yl)-4H-1′-azaspiro[isoxazole-5,3′-bicyclo[2.2.2]octan]-3-amine hydrochloride] | 250

Row | Compound | Ki [nM]
43 | Clc1cccc2cc(NC3=NO[C@@]4(C3)CN3CCC4CC3)ncc12 [(R)-23, (R)—N-(8-chloroisoquinolin-3-yl)-4H-1′-azaspiroksoxazole-5,3^1-bicyclo[2.2.2]octan1-3-amine hydrochloride] | 400
44 | Clc1cccc2cnc(NC3=NO[C@@]4(C3)CN3CCC4CC3)cc12 [(R)-24, (R)—N -(5-chloroisoquinolin-3-yl)-4H-1′-azaspiroksoxazole-5,3′-bicyclo[2.2.2]octan1-3-amine hydrochloride] | 890
45 | Cc1ccc2sc(NC3=NO[C@@]4(C3)CN3CCC4CC3)nc2c1 [(R)-25, (R)—N -(5-methylbenzo[d]thiazol-2-yl)-4H-1′-azaspiro[isoxazole-5,3′-bicyclo[2.2.2]octan]-3-amine hydrochloride] | 68
46 | c1cc2sc(NC3=NO[C@@]4(C3)CN3CCC4CC3)nc2cc1C1CC1 [(R)-26, (R)—N -(5-cyclopropylbenzo[d]thiazol-2-yl)-4H-1′-azaspiro[isoxazole-5,3′-bicyclo[2.2.2]octan]-3-amine hydrochloride] | 86
47 | Fc1ccc2sc(NC3=NO[C@@]4(C3)CN3CCC4CC3)nc2c1 [(R)-27, (R)—N-(5-fluorobenzo[d]thiazol-2-yl)-4H-1′-azaspiro[isoxazole-5,3′-bicyclo[2.2.2]octan]-3-amine hydrochloride] | 230
48 | Clc1cc2nc(NC3=NO[C@@]4(C3)CN3CCC4CC3)sc2cc1Cl [(R)-30, (R)—N-(5 ,6 - dichlor obenzo[d]thiazol-2-yl)-4H-1′-azaspiro[isoxazole-5,3′-bicyclo[2.2.2]octan]-3-amine hydrochloride] | 80
49 | Clc1cccc(NC2=NO[C@@]3(C2)CN2CCC3CC2)c1 [(R)-34, (R)—N-(3-chlorophenyl)-4H-1′-azaspiro[isoxazole-5,3′-bicyclo[2.2.2]octan]-3-amine hydrochloride] | 640
50 | Cc1cc2ccc(NC3=NO[C@@]4(C3)CN3CCC4CC3)cc2o1 [(R)-40, (R)—N-(2-methylbenzofuran-6-yl)-4H-1′-azaspiro[isoxazole-5,3′-bicyclo[2.2.2]octan]-3-amine hydrochloride] | 47
51 | Cc1cc2ccc(NC3=NO[C@@]4(C3)CN3CCC4CC3)cc2s1 [(R)-42, (R)—N-(2-methylbenzo[b]thiophen-6-yl)-4H-1′-azaspiro[isoxazole-5,3′-bicyclo[2.2.2]octan]-3-amine hydrochloride] | 66
52 | Cc1cc2cc(NC3=NO[C@@]4(C3)CN3CCC4CC3)ccc2s1 [(R)-43, (R)—N-(2-methylbenzo[b]thiophen-5-yl)-4H-1′-azaspiro[isoxazole-5,3′-bicyclo[2.2.2.]octan]-3-amine hydrochloride] | 210
53 | Fc1ccc2cc(NC3=NO[C@@]4(C3)CN3CCC4CC3)ncc2c1 [(R)-44, (R)—N-(7-fluoroisoquinolin-3-yl)-4H-F-azaspiro[isoxazole-5,3^1-bicyclo[2.2.2]octan]-3-amine hydrochloride] | 390
54 | Fc1ccc2cnc(NC3=NO[C@@]4(C3)CN3CCC4CC3)cc2c1 [(R)-45, (R)—N-(6-fluoroisoquinolin-3-yl)-4H-1′-azaspiro[isoxazole-5,3′-bicyclo[2.2.2]octan]-3-amine hydrochloride] | 225
55 | COc1ccc2cc(NC3=NO[C@@]4(C3)CN3CCC4CC3)ncc2c1 [(R)-46, (R)—N-(7-methoxyisoquinolin-3-yl)-4H-1′-azaspiro[isoxazole-5,3′-bicyclo[2.2.2]octan]-3-amine hydrochloride] | 1800
56 | COc1ccc2cnc(NC3=NO[C@@]4(C3)CN3CCC4CC3)cc2c1 [(R)-47, (R)—N-(6-methoxyisoquinolin-3-yl)-4H-1′-azaspiro[isoxazole-5,3′-bicyclo[2.2.2]octan]-3-amine hydrochloride] | 335
57 | Clc1ccc2nc(NC3=NO[C@@]4(C3)CN3CCC4CC3)ncc2c1 [(R)-48, (R)—N-(6-chloroquinazolin-2-yl)-4H-1′-azaspiro[isoxazole-5,3′-bicyclo[2.2.2]octan]-3-amine hydrochloride] | 42.5
58 | Clc1ccc2cnc(NC3=NO[C@@]4(C3)CN3CCC4CC3)nc2c1 [(R)-49, (R)—N-(7-chloroquinazolin-2-yl)-4H-1′-azaspiro[isoxazole-5,3′-bicyclo[2.2.2]octan]-3-amine] | 43
59 | Cc1nc2ccc(NC3=NO[C@@]4(C3)CN3CCC4CC3)cc2s1 [(R)-50, (R)—N-(2-methylbenzo[d]thiazol-6-yl)-4H-1′-azaspiro[isoxazole-5,3′-bicyclo[2.2.2]octan]-3-amine hydrochloride] | 205
60 | Cc1cc2cnc(NC3=NO[C@@]4(C3)CN3CCC4CC3)nc2s1 [(R)-52, (R)—N-(6-methylthieno[2,3-d]pyrimidin-2-yl)-4H-1′-azaspiro[isoxazole-5,3′-bicyclo[2.2.2]octan]-3-amine hydrochloride] | 37.5
61 | Cc1cc2ccc(NC3=NO[C@@]4(C3)CN3CCC4CC3)nc2s1 [(R)-53, (R)—N-(2-methylthieno[2,3-b]pyridin-6-yl)-4H-1′-azaspiro[isoxazole-5,3′-bicyclo[2.2.2]octan]-3-amine hydrochloride] | 25
